AlphaSeq binding of Ab-95 light chain variants to a spike HR2 peptide

The measurements come from Engelhart et al. 2022 (doi:10.1038/s41597-022-01779-4) through the FLAb antibody collection.

Target peptide (SARS-CoV-2 spike, HR2 region): PDVDLGDISGINAS

Parent: Ab-95, a human scFv built as VH, a (GGGGS)3 linker, VL. Only the CDRs of the light chain vary.
VH: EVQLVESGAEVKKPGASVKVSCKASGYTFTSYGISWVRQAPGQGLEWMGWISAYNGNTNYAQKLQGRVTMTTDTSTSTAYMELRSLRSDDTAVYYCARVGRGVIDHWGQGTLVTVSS
VL: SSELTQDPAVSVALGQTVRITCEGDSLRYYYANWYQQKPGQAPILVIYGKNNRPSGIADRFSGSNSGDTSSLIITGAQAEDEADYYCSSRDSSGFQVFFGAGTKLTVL

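Phage display of a naive human antibody library on the peptide gave the parent. Variants in AAYL52 differ from the parent at up to three CDR positions; double and triple changes were sampled at random. The assay is AlphaSeq: two haploid yeast populations carry antibody and antigen on their surface. The frequency of each diploid, read from paired DNA barcodes, reflects how well the two displayed proteins bind. Scores were corrected for input abundance and mapped to Kd with protein pairs of known affinity run in the same pool. The assay was run in three technical replicates.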

Changes read parent residue, position, new residue, counted from the first residue of the VL shown. All variants listed here change Y29 of the VL, counted from its first residue. Values are apparent Kd, the geometric mean of the replicates that gave a signal; lower means stronger binding. "nd" marks a missing value. The strain was present, yet no cells mated with the target were sequenced in any replicate, which points to weak or no binding.

* Y29I S55T Q96V -> nd (0 of 3 replicates)
* Y29F S93L F95E -> 630 nM (3 of 3 replicates)
* Y29S K50Y D91W -> 7.3 µM (1 of 3 replicates)
* G24H Y29A R53D -> 7.7 µM (2 of 3 replicates)
* Y29I N33D N51A -> 17 µM (3 of 3 replicates)
* Y29S G94F Q96F -> 13 µM (1 of 3 replicates)
* Y29R Y31Q K50V -> 31 nM (3 of 3 replicates)
* Y29F S89E S92C -> 5.3 µM (3 of 3 replicates)
* Y29P K50P F98Q -> 410 nM (3 of 3 replicates)
* Y29P R90H V97C -> nd (0 of 3 replicates)
* Y29A A32P N52Y -> 34 nM (3 of 3 replicates)
* G24Y Y29Q G94Q -> 12 µM (1 of 3 replicates)
* S26M Y29M S88D -> nd (0 of 3 replicates)
* R28Y Y29S N51P -> 2.7 µM (1 of 3 replicates)
* G24N Y29H -> 3.8 µM (1 of 3 replicates)
* Y29T N33D F95W -> nd (0 of 3 replicates)
* L27G Y29S G49H -> 2.1 µM (3 of 3 replicates)
* G24Q S26I Y29T -> 220 µM (1 of 3 replicates)
* D25L Y29H A32K -> 950 nM (3 of 3 replicates)
* Y29F R53L R90P -> 3.2 µM (3 of 3 replicates)
* E23F Y29H Y30C -> 1.8 µM (3 of 3 replicates)
* D25F Y29H G94T -> 230 nM (3 of 3 replicates)
* G24Q Y29V Y30W -> 2.5 µM (2 of 3 replicates)
* D25P Y29E S93K -> 430 nM (3 of 3 replicates)
* Y29C K50P -> 1.7 µM (3 of 3 replicates)
* Y29N N33W S93N -> 7.4 µM (2 of 3 replicates)
* E23P Y29T -> 2.4 µM (3 of 3 replicates)
* Y29R S55R S93W -> nd (0 of 3 replicates)
* Y29N N33G R90W -> nd (0 of 3 replicates)
* Y29Q A32F G49R -> 2.4 µM (3 of 3 replicates)
* L27M Y29W Y30I -> 180 nM (3 of 3 replicates)
* Y29K R53V P54F -> 1.2 µM (2 of 3 replicates)
* Y29I S55P S92M -> 1.9 µM (1 of 3 replicates)
* Y29H S89R S93G -> 630 nM (3 of 3 replicates)
* Y29A F98S -> 140 nM (3 of 3 replicates)
* Y29T P54C -> 4.7 µM (2 of 3 replicates)
* Y29L Y30E -> 76 nM (3 of 3 replicates)
* Y29M Y31T S92T -> 240 nM (3 of 3 replicates)
* Y29V R90E S92R -> nd (0 of 3 replicates)
* Y29A K50S G94K -> 34 µM (2 of 3 replicates)
* E23F Y29N D91A -> 280 nM (3 of 3 replicates)
* D25N Y29K P54M -> 1.6 µM (2 of 3 replicates)
* Y29M R53T F95P -> 8.6 µM (3 of 3 replicates)
* R28F Y29Q S55P -> 650 nM (3 of 3 replicates)
* L27E Y29C Q96S -> 1.0 µM (1 of 3 replicates)
* Y29N A32D K50V -> 3.9 µM (2 of 3 replicates)
* Y29A S55E -> 20 nM (3 of 3 replicates)
* D25E Y29Q -> 170 nM (3 of 3 replicates)
* L27S R28Q Y29F -> 1.5 µM (1 of 3 replicates)
* L27Q Y29S F98N -> 2.9 µM (3 of 3 replicates)
* Y29C R90H F98S -> 3.8 µM (3 of 3 replicates)

The first 5 entries again:

- Y29I S55T Q96V = nd (0 of 3 replicates)
- Y29F S93L F95E = 630 nM (3 of 3 replicates)
- Y29S K50Y D91W = 7.3 µM (1 of 3 replicates)
- G24H Y29A R53D = 7.7 µM (2 of 3 replicates)
- Y29I N33D N51A = 17 µM (3 of 3 replicates)

Three control strains display no target. For library AAYL52, 28% of the pairings with them gave a signal, with a median of 8.2 µM and one signal in twenty below 800 nM, so weak values seen in few replicates may be background. Parent in this assay: reference entry 200 nM, copy in this library 180 nM.